Apparent affinities of Ab-14 variants for a coronavirus HR2 peptide

The measurements come from Li et al. 2023 (doi:10.1038/s41467-023-39022-2) through the FLAb antibody collection.

Target: peptide PDVDLGDISGINAS, taken from heptad repeat 2 (HR2) of SARS-CoV-2 spike.

Each scFv is VH, a 15-residue (Gly4Ser)3 linker, VL, as in the parent Ab-14, and differs from it in the CDRs of the heavy chain only.
VH: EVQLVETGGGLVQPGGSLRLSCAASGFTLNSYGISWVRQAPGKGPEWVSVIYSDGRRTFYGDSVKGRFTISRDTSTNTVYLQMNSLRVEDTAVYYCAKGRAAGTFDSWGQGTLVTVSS
VL: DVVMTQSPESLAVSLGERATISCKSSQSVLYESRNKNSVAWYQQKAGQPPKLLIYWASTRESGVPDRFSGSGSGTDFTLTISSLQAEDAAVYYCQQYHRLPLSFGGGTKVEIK

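The parent was found by panning a naive human phage display library on the peptide. The variants were designed computationally from a first round of random CDR variants and then made and measured. Their group label is 14H_En_Gen (En: ensemble of fine-tuned language models; Gen: genetic algorithm). The assay is AlphaSeq: two haploid yeast populations carry antibody and antigen on their surface. The frequency of each diploid, read from paired DNA barcodes, reflects how well the two displayed proteins bind. The ratio of observed to expected reads was calibrated, replicate by replicate, on BCL2-family standards whose Kd was known from biolayer interferometry. There are six technical replicates.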

Each variant is given by its three heavy chain CDRs, as the data file delimits them; those of the parent are GFTLNSYGIS, VIYSDGRRTFYGDSVK, GRAAGTFDS.
Values are log10 of the apparent Kd in nM; lower means stronger binding.
Averages over replicates are reported, and they cover detected replicates only.
Where no diploid with the target was found in that replicate, the entry reads "n.d.": below detection, most likely a poor binder, though not proof of it.

{"CDR-H1": "GFDLNEYGIS", "CDR-H2": "VIYADGQRTAYADSVK", "CDR-H3": "GNNAGTFDL", "log10 Kd (nM) by replicate": "n.d. / n.d. / n.d. / n.d. / n.d. / n.d.", "mean, log10 nM": "n.d.", "signal with controls": "0 of 18"}
{"CDR-H1": "GFDLNEYGIS", "CDR-H2": "VIYADGVRTAYADSVK", "CDR-H3": "GEVAGTFDT", "log10 Kd (nM) by replicate": "-0.44 / -0.46 / -0.69 / -0.57 / -0.57 / -0.44", "mean, log10 nM": "-0.53", "signal with controls": "0 of 18"}
{"CDR-H1": "GFDLNEYGIS", "CDR-H2": "VIYADGRRKAYADSVK", "CDR-H3": "GNQAGTFDV", "log10 Kd (nM) by replicate": "-0.47 / -0.33 / 1.08 / 0.02 / -0.13 / 0.36", "mean, log10 nM": "0.09", "signal with controls": "0 of 18"}
{"CDR-H1": "GFDLNEYGIS", "CDR-H2": "VIYADGKRTAYTDSVK", "CDR-H3": "GQVAGTFDV", "log10 Kd (nM) by replicate": "-0.27 / -0.07 / -0.12 / -0.24 / -0.09 / -0.36", "mean, log10 nM": "-0.19", "signal with controls": "0 of 18"}
{"CDR-H1": "GFDLNEYGIS", "CDR-H2": "VIYADGVRTFYADSVK", "CDR-H3": "GNNAGTFDI", "log10 Kd (nM) by replicate": "0.22 / -0.59 / -0.90 / -0.57 / -0.53 / -0.65", "mean, log10 nM": "-0.50", "signal with controls": "0 of 18"}
{"CDR-H1": "GFDLNEYGIS", "CDR-H2": "VIYADGMRTAYADKVK", "CDR-H3": "GNQAGTFDI", "log10 Kd (nM) by replicate": "-0.19 / 0.01 / -0.22 / -1.01 / -0.97 / -0.47", "mean, log10 nM": "-0.48", "signal with controls": "0 of 18"}
{"CDR-H1": "GFDLNEYGIS", "CDR-H2": "VIYADGMRTAYADSVK", "CDR-H3": "GNQAGTFNV", "log10 Kd (nM) by replicate": "0.08 / 0.34 / -0.59 / -0.10 / -0.63 / 0.41", "mean, log10 nM": "-0.08", "signal with controls": "0 of 18"}
{"CDR-H1": "GFDLNEYGIS", "CDR-H2": "VIYADGMRTFYADDVK", "CDR-H3": "GNEAGTFDV", "log10 Kd (nM) by replicate": "-0.16 / -0.51 / -0.49 / -0.41 / -0.49 / -0.41", "mean, log10 nM": "-0.41", "signal with controls": "0 of 18"}
{"CDR-H1": "GFDLNEYGIS", "CDR-H2": "VIYADGMRTAYADSVK", "CDR-H3": "GGVAGTFDI", "log10 Kd (nM) by replicate": "-0.42 / -0.68 / -0.95 / -0.87 / -0.82 / -0.44", "mean, log10 nM": "-0.70", "signal with controls": "1 of 18 (2.57)"}
{"CDR-H1": "GFDLDEYGIS", "CDR-H2": "VIYADGQRTAYADSVK", "CDR-H3": "GNEAGTFDV", "log10 Kd (nM) by replicate": "-0.40 / -0.27 / -0.59 / -0.56 / -0.46 / -0.11", "mean, log10 nM": "-0.40", "signal with controls": "1 of 18 (2.32)"}
{"CDR-H1": "GFDLNEYGIS", "CDR-H2": "VIYADGRRTAYADDVK", "CDR-H3": "GNVAGTFDQ", "log10 Kd (nM) by replicate": "-0.49 / -0.54 / -1.09 / -0.57 / -0.75 / -0.51", "mean, log10 nM": "-0.66", "signal with controls": "0 of 18"}
{"CDR-H1": "GFDLNEYGIS", "CDR-H2": "VIYADGMRTAYADKVK", "CDR-H3": "GQNAGTFDV", "log10 Kd (nM) by replicate": "0.12 / -0.34 / -0.46 / -0.04 / -0.56 / -0.12", "mean, log10 nM": "-0.23", "signal with controls": "0 of 18"}
{"CDR-H1": "GFDLDEYGIS", "CDR-H2": "VIYADGMRTAYSDNVK", "CDR-H3": "GEVAGTFDT", "log10 Kd (nM) by replicate": "0.00 / -0.06 / -0.45 / -0.30 / -0.25 / -0.11", "mean, log10 nM": "-0.19", "signal with controls": "0 of 18"}
{"CDR-H1": "GFNLDEYGIS", "CDR-H2": "VIYADGMRTAYADSVK", "CDR-H3": "GENAGTFDV", "log10 Kd (nM) by replicate": "-0.35 / -0.42 / -0.35 / -0.45 / -0.54 / -0.50", "mean, log10 nM": "-0.43", "signal with controls": "0 of 18"}
{"CDR-H1": "GFDLDEYGIS", "CDR-H2": "VIYADGMRTVYSDSVK", "CDR-H3": "GNVAGTFDV", "log10 Kd (nM) by replicate": "-0.28 / -1.00 / -0.82 / -0.81 / -1.21 / -1.02", "mean, log10 nM": "-0.86", "signal with controls": "0 of 18"}
{"CDR-H1": "GFDLNEYGIS", "CDR-H2": "VIYADGVRTAYADDVK", "CDR-H3": "GNNAGTFDM", "log10 Kd (nM) by replicate": "-0.41 / 0.12 / 0.09 / 0.12 / 0.07 / -0.26", "mean, log10 nM": "-0.04", "signal with controls": "2 of 18 (1.44)"}
{"CDR-H1": "GFDLDEYGIS", "CDR-H2": "VIYADGRRTAYADDVK", "CDR-H3": "GNQAGTFDV", "log10 Kd (nM) by replicate": "0.40 / 0.82 / 0.03 / -0.59 / -0.19 / -0.16", "mean, log10 nM": "0.05", "signal with controls": "0 of 18"}
{"CDR-H1": "GFDLNEYGIS", "CDR-H2": "VIYADGQRTAYADSVK", "CDR-H3": "GEVAGTFDV", "log10 Kd (nM) by replicate": "-0.33 / -0.15 / -0.27 / -0.42 / -0.53 / -0.25", "mean, log10 nM": "-0.32", "signal with controls": "0 of 18"}
{"CDR-H1": "GFDLDEYGIS", "CDR-H2": "VIYADGMRTAYADNVK", "CDR-H3": "GQVAGTFDI", "log10 Kd (nM) by replicate": "-0.37 / -0.30 / -0.31 / -0.73 / -0.38 / 1.43", "mean, log10 nM": "-0.11", "signal with controls": "0 of 18"}
{"CDR-H1": "GFDLNEYGIS", "CDR-H2": "VIYADGMRTQYADSVK", "CDR-H3": "GNVAGTFDQ", "log10 Kd (nM) by replicate": "-0.41 / 0.14 / -0.78 / -0.25 / -0.47 / -0.33", "mean, log10 nM": "-0.35", "signal with controls": "0 of 18"}
{"CDR-H1": "GFDLNEYGIS", "CDR-H2": "VIYADGMRTAYADSVK", "CDR-H3": "GNVAGTFDQ", "log10 Kd (nM) by replicate": "-0.08 / -0.89 / 0.55 / -0.45 / -0.90 / -0.83", "mean, log10 nM": "-0.43", "signal with controls": "0 of 18"}
{"CDR-H1": "GFDLNEYGIS", "CDR-H2": "VIYADGMRTSYADSVK", "CDR-H3": "GNEAGTFDV", "log10 Kd (nM) by replicate": "-0.44 / -0.37 / -0.48 / -0.18 / -0.22 / -0.12", "mean, log10 nM": "-0.30", "signal with controls": "0 of 18"}
{"CDR-H1": "GFDLNEYGIS", "CDR-H2": "VIYADGVRTAYADKVK", "CDR-H3": "GNVAGTFDQ", "log10 Kd (nM) by replicate": "-0.12 / 0.46 / -0.28 / -0.30 / -0.40 / -0.08", "mean, log10 nM": "-0.12", "signal with controls": "0 of 18"}
{"CDR-H1": "GFSLDEYGIS", "CDR-H2": "VIYADGMRTAYADSVK", "CDR-H3": "GNQAGTFDV", "log10 Kd (nM) by replicate": "-0.15 / -0.34 / -0.16 / -0.29 / -0.15 / -0.18", "mean, log10 nM": "-0.21", "signal with controls": "0 of 18"}
{"CDR-H1": "GFNLDEYGIS", "CDR-H2": "VIYADGMRTAYADSVK", "CDR-H3": "GEVAGTFDV", "log10 Kd (nM) by replicate": "-0.08 / -0.51 / -0.23 / -0.78 / -0.52 / -0.29", "mean, log10 nM": "-0.40", "signal with controls": "0 of 18"}
{"CDR-H1": "GFDLNEYGIS", "CDR-H2": "VIYADGKRKAYADSVK", "CDR-H3": "GNVAGTFDL", "log10 Kd (nM) by replicate": "-0.40 / -0.55 / -0.41 / -0.22 / -0.40 / -0.13", "mean, log10 nM": "-0.35", "signal with controls": "1 of 18 (2.13)"}
{"CDR-H1": "GFDLNEYGIS", "CDR-H2": "VIYADGVRTAYIDSVK", "CDR-H3": "GENAGTFDM", "log10 Kd (nM) by replicate": "0.56 / 0.20 / 0.44 / -0.26 / -0.07 / -0.16", "mean, log10 nM": "0.12", "signal with controls": "0 of 18"}
{"CDR-H1": "GFDLNEYGIS", "CDR-H2": "VIYADGMRTFYADDVK", "CDR-H3": "GNQAGTFDL", "log10 Kd (nM) by replicate": "-0.19 / -0.52 / -0.22 / -0.30 / -0.20 / -0.21", "mean, log10 nM": "-0.27", "signal with controls": "0 of 18"}

Extract of 3 entries:

{"CDR-H1": "GFDLDEYGIS", "CDR-H2": "VIYADGRRTAYADDVK", "CDR-H3": "GNQAGTFDV", "log10 Kd (nM) by replicate": "0.40 / 0.82 / 0.03 / -0.59 / -0.19 / -0.16", "mean, log10 nM": "0.05", "signal with controls": "0 of 18"}
{"CDR-H1": "GFDLNEYGIS", "CDR-H2": "VIYADGVRTFYADSVK", "CDR-H3": "GNNAGTFDI", "log10 Kd (nM) by replicate": "0.22 / -0.59 / -0.90 / -0.57 / -0.53 / -0.65", "mean, log10 nM": "-0.50", "signal with controls": "0 of 18"}
{"CDR-H1": "GFDLNEYGIS", "CDR-H2": "VIYADGVRTAYADKVK", "CDR-H3": "GNVAGTFDQ", "log10 Kd (nM) by replicate": "-0.12 / 0.46 / -0.28 / -0.30 / -0.40 / -0.08", "mean, log10 nM": "-0.12", "signal with controls": "0 of 18"}

As a blank, each scFv also met three strains without target: over all heavy chain designs, 1% of these pairings were detected, typically at 2.08 and seldom below 0.84. For each scFv, signals with the empty controls are counted beside the result, with their mean in brackets.
Values of this round are not directly comparable with the first-round values of the same sequences.
In the paper, a design with two or fewer of six values counts as a poor binder.